The results in this text go back to paper PMC2779710 (Journal of medicinal chemistry, 2009).

Protein sequences, listed by entry. Tags and fused reporters are not part of them. Lines headed by an entry give the natural chain unless they say otherwise; changes in a name come on top.
UniProt P30872: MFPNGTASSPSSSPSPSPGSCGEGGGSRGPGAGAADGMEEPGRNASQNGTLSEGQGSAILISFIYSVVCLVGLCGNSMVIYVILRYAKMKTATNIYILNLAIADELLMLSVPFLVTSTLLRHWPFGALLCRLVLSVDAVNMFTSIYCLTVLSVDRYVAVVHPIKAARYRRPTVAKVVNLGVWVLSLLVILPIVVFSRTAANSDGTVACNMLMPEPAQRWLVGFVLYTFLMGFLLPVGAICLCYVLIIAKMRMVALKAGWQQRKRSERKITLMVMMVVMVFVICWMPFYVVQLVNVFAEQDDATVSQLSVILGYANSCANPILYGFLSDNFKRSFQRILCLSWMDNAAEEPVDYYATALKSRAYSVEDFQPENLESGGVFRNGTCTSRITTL
UniProt P30874: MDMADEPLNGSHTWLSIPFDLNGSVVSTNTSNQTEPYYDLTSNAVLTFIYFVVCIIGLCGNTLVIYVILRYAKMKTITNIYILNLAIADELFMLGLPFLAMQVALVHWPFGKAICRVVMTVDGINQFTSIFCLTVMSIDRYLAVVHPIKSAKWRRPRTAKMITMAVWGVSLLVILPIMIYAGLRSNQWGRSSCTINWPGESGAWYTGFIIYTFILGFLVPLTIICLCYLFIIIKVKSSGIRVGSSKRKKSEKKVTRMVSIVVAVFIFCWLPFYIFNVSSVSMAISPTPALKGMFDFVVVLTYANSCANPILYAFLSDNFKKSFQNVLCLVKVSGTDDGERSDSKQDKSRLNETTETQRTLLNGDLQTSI

Test [1] concerns the target sst1-expressing human cancers (Homo sapiens, UniProt P30872). Nature of the test: Radioligand autoradiography on tumor tissue sections, binding displaceable by 33.
The target of another test is Sst2-expressing tumors (Homo sapiens, UniProt P30874). It is filed as binding. To be noted: 8 cases.

Marks after values point to notes of the source that are not given here.

On to “[Leu^8,DTrp^22,^125ITyr^25]SRIF-28 [^125I-[LTT]-SRIF-28]”, for which the “Incidence of binding displaceable by 33” value in test [1] (Bronchial Carcinoids, 6 cases) is 6/6; in test [1] (Gastroenteropancreatic Tumors, 4 cases), 4/4; in test [1] (Mesenchymal Tumors, 7 cases), 7/7; in test [1] (Prostate Cancer, 8 cases) it was 8/8; at Sst2-expressing tumors, 0/8 ^*. For the same substance, the “tumor labeling (total binding)” value in test [1] (adjacent sections of sst1 receptor-expressing human prostate cancer) is “strong tumor labeling”.
